Source: publication PMC12527922, “Cocaine chemogenetics blunts drug-seeking by synthetic physiology” (Nature, 2025)

Protein sequences, listed by entry. Tags and fused reporters are not part of them. Residues count along the entry.
UniProt P36544, 23-224 L141G/G175K/Y210F/Y217F: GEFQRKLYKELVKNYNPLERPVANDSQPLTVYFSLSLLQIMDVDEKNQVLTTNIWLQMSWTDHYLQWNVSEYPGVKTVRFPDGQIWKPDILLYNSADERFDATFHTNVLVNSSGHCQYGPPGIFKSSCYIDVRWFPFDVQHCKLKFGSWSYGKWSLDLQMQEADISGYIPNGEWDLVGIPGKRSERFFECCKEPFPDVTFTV

Target: coca-5HT3 (α7(L141G,G175K,Y210F,Y217F)–5HT3) (Homo sapiens, UniProt P36544, G175K/L141G/Y210F/Y217F)
Assay: Membrane potential assay, coca-5HT3 in HEK293
Settings: coca5HT3; [Nicotine] 1000 uM

CN1CCC[C@H]1c1cccnc1 [nicotine]
Response, dose-response replicates (DR 1-4): 0.336
